The record followed here is patent US20160095823A1, “METHODS OF USING PROPOFOL DERIVATIVES FOR ANALGESIA” (priority 2005, published 2016).

As usually defined, the EC50 is the concentration giving half of the maximal effect.

Assay [1] addresses T1, α1 homomeric glycine receptors (Rattus norvegicus, UniProt P07727).
T1 construct: expressed in transfected cells; host or cells: HEK 293, transient electroporation, cDNA in pCIS2, GFP cDNA co-transfected as marker
T1 sequence (P07727 29-457): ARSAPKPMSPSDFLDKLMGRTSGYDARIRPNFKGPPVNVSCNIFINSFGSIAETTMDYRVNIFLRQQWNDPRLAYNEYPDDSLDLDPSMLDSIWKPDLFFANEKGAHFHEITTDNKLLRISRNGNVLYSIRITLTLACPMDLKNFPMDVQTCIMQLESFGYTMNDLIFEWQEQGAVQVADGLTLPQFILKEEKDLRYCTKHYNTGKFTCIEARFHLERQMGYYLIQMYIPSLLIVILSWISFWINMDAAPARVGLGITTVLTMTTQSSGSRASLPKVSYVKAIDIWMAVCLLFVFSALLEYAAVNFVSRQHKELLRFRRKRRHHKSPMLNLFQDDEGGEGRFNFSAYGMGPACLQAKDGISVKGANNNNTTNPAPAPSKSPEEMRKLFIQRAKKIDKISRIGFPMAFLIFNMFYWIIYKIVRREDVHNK
In words: Direct activation of Cl- inward currents (agonist applied alone), whole-cell patch clamp, HEK 293. Format: cell-based. How it is done:
(§1) Reduced sensitivity to 1000 μM picrotoxin in α1β heteromeric receptors was used as an assay of the efficacy of β subunit expression. Cells were cultured in Dulbecco's modified Eagle's medium (DMEM, Biochrom, Berlin, Germany), supplemented with 10% fetal calf serum (FCS, Biochrom, Berlin, Germany), 100 U ml^−1 penicillin and 100 μg ml^−1 streptomycin at 37° C. in a 5% CO2/air incubator. For transfection, cells were suspended in a buffer containing 50 mM K2HPO4 and 20 mM K-acetate, pH 7.35. […] To visualize transfected cells, they were co-transfected with cDNA of green fluorescent protein (GFP 10 μg ml^−1). For transfection, we used an electroporation device by EquiBio (Kent, UK). Transfected cells were replated on glass-coverslips and incubated 15-24 h before recording.
(§2) Standard whole-cell experiments (Hamill et al., (1981) Pflügers Arch., 391, 85-100.) were performed at −30 mV membrane potential. A tight electrical seal of several GΩ formed between the cell membrane and a patch-clamp electrode allows inward currents due to agonist-induced channel activation to resolve in the pA range. Electrical resistance of the pipettes was around 5 MΩ, corresponding to a total access resistance in the whole-cell configuration of about 10 MΩ. […]
In general terms: In patch-clamp work, channel activity is measured electrically.

Assay [2] addresses T2, α1β heteromeric glycine receptors (Rattus norvegicus, UniProt P07727).
T2 construct: expressed in transfected cells; host or cells: HEK 293, transient electroporation, α:β cDNA 1:10, pCIS2 vector
The assay is described as above. Type of assay: cell-based. How it is done: as §1, §2

Molecules are shown by their SMILES.

In the case of `NCC(=O)O` [glycine], the EC50 was 12.8 ± 2.3 µM in assay [1] and 47 ± 14 µM in assay [2].
